From PubChem BioAssay AID2524 (Sanford-Burnham Center for Chemical Genomics, 2010) come the findings set out here.

The chains behind the UniProt entries cited, without tags or fusion partners. Where a name states a change or a piece, a line headed by the entry shows the natural chain unless it says otherwise.
UniProt P09923: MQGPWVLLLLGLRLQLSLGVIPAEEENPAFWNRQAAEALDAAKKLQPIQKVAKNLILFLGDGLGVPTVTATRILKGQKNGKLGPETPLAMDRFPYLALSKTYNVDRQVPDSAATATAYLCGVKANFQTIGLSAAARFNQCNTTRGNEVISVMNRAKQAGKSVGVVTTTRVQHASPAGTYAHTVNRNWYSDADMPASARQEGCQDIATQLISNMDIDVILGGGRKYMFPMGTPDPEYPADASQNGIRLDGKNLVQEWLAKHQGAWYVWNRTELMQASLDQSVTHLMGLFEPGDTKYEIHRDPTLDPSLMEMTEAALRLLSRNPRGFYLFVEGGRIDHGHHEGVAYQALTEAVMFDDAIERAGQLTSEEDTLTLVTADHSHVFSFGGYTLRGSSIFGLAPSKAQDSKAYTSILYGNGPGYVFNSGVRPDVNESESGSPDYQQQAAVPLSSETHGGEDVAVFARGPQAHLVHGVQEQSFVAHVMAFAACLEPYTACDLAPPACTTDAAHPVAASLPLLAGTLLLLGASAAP

The entries are a selection whose mix differs from that of the whole data set. Activity calls are given as the source filed them.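 How the source made its calls: active means activation factor of the enzyme at least 2-fold when tested at 20 µM; inactive means the rest.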

The experiment addresses Intestinal-type alkaline phosphatase (Homo sapiens) (UniProt P09923). Briefly: human IAP activators, primary screen, biochemical, luminescence, uHTS (AID 2524). The note with it: purified human IAP, CDP-Star luminescence, 30 min; at 10 µM; active compounds read high; 1 = vehicle-only enzyme, 0 = enzyme-free background.
On to `COc1ccc(C2=NCC(CBr)S2)cc1` (stereo not drawn), for which the activation factor was inactive: 1.06.
With `Cc1ccc(NP(=O)(Oc2ccccc2)Oc2ccccc2)nc1`, the activation factor is inactive: 1.3.
The same measure for `O=[N+]([O-])c1cc([N+](=O)[O-])c(CCNc2ccccc2)c([N+](=O)[O-])c1`: inactive: 0.912.
In the case of `CCc1nc2c(n1)c1c(non1O)c1c2no[n+]1[O-]`, the activation factor is inactive: 0.802.
Take `CC(=O)N1C2C3N(C(C)=O)C1C1N(C(C)=O)C(C(N1C(C)=O)N3C(C)=O)N2C(C)=O`: the activation factor is inactive: 1.01.
On to `O=[N+]([O-])c1cccc2n[nH]nc12`, for which the activation factor is inactive: 0.889.
`CCN(/C(=N/P(=O)(N1CCOCC1)N1CCOCC1)N1CCOCC1)c1ccc(OC)cc1`: the activation factor was inactive: 0.951.
As to `Nc1ccc([As](=O)(O)c2ccc(N)cc2)cc1`, the activation factor was inactive: 0.992.
The same measure for `C[N+]1=C2C=CC=CC=C2SC12C([N+](=O)[O-])=CC([N+](=O)[O-])=C[C-]2[N+](=O)[O-]` (stereo not drawn): inactive: 1.18.
As for `CC1CCN(C(=O)Oc2c(Cl)cc(Cl)c3cccnc23)CC1`, the activation factor was inactive: 0.866.
Regarding `CC(C)=N/N=C(\N)N[N+](=O)[O-]`, the activation factor was inactive: 1.17.
For `CN(C)C(=O)OCCc1n(C)cc[n+]1C`, the activation factor was inactive: 0.985.
Consider `O=C(Nc1cc([As](=O)(O)O)ccc1O)c1ccccc1`, for which the activation factor was inactive: 0.785.
With `O=[N+]([O-])c1ncn(CCn2ncnc2[N+](=O)[O-])n1` the figure was inactive: 1.03.
Take `CC(C)(C)C(=O)NC(Sc1ccncn1)C(Cl)(Cl)Cl` (stereo not drawn): the activation factor was inactive: 1.1.
Turning to `O=[N+]([O-])c1cccc(NC2=NCC(CBr)S2)c1` (stereo not drawn), the activation factor is inactive: 0.905.
Turning to `O=P(Nc1nc2ccc(Cl)cc2s1)(c1ccccc1)c1ccccc1`, the activation factor is inactive: 1.21.
Consider `O=C(O)c1ccccc1[As](=O)(O)O`, for which the activation factor is inactive: 0.972.
Take `CC(=O)Nc1ccc([As](=O)(O)O)cc1`: the activation factor was inactive: 0.892.
Consider `CCOP(=O)(Nc1ccccc1)OCC`, for which the activation factor was inactive: 1.06.
The same measure for `Cc1cc(SC(NC(=O)c2ccc(F)cc2)C(Cl)(Cl)Cl)ncn1` (stereo not drawn): inactive: 0.91; for `CN(C(=O)Cc1ccc(Cl)c(Cl)c1)[C@H]1CCCC[C@@H]1N1CCCC1`: inactive: 1.02.
For `Cc1ccc(NP(=O)(Oc2ccccc2F)Oc2ccccc2F)nc1`, the activation factor was inactive: 0.915.
With `O=[N+]([O-])c1cc([N+](=O)[O-])c(CCN2CCOCC2)c([N+](=O)[O-])c1`, the activation factor was inactive: 0.789.
As to `CCN(N=Nc1nonc1N)c1nonc1N`, the activation factor was inactive: 0.978.
As for `CN(C(=O)Cc1ccc(Cl)c(Cl)c1)[C@H]1CCCC[C@H]1N1CCCC1`, the activation factor is inactive: 0.922.
`Cc1ccc(N/C(=N/P(=O)(N2CCOCC2)N2CCOCC2)N2CCOCC2)cc1`: the activation factor was inactive: 0.985.
Regarding `NC(=O)c1cc([N+](=O)[O-])cc([N+](=O)[O-])c1N`, the activation factor was inactive: 1.08.
For `Clc1ccc(Cl)c(NC2=NCC(CBr)S2)c1` (stereo not drawn), the activation factor is inactive: 0.86.
The same measure for `CN1CCCC(OC(=O)C(c2ccccc2)c2ccccc2)C1` (stereo not drawn): inactive: 1.
With `COc1ccccc1OP(=O)(Nc1ccc(C)cn1)Oc1ccccc1OC`, the activation factor was inactive: 1.16.
With `Cc1ccc(OP(=O)(Nc2nccs2)Oc2ccc(C)cc2)cc1` the figure was inactive: 1.18; with `Oc1ccccc1CNc1ccccn1`, inactive: 0.973; with `Cc1c2non([O-])c-2c(C)[n+](=O)[n+]1[O-]`, inactive: 0.903.
`O=C(NC(Sc1ccncn1)C(Cl)(Cl)Cl)c1ccccc1` (stereo not drawn): the activation factor is inactive: 1.01.
With `CC(C)CC(=O)NC(Sc1ccc(Cl)cc1)C(Cl)(Cl)Cl` (stereo not drawn) the figure was inactive: 1.18.
On to `Nc1cc(N)c2nonc2c1[N+](=O)[O-]`, for which the activation factor is inactive: 0.984.
The same measure for `O=P1(Nc2nc3ccc(Cl)cc3s2)COc2ccccc2O1` (stereo not drawn): inactive: 1.04; for `CCOc1ccc(C2=NCC(CBr)S2)cc1` (stereo not drawn): inactive: 0.965; for `CC(C)(C)C(=O)NC(Sc1ccccc1)C(Cl)(Cl)Cl` (stereo not drawn): inactive: 0.965.
Regarding `Cc1ccccc1CN(C)C(=O)COC(=O)C(O)(c1ccccc1)c1ccccc1`, the activation factor was inactive: 0.967.
The same measure for `C[C@@H]1C=CCP(=O)(Oc2ccccc2)O1` (stereo partly drawn): inactive: 1.04; for `C[C@H]1OP(=O)(Oc2ccccc2)C[C@@H]2O[C@@H]21` (stereo partly drawn): inactive: 0.953.
With `CC(=O)c1ccc(N2CC2c2ccncc2)cc1` (stereo not drawn) the figure was inactive: 0.74; with `CC(=O)Nc1ccc([As](=O)(O)O)c(O)c1`, inactive: 1.12.
With `CC(=O)Nc1ccc(Oc2c([N+](=O)[O-])cc([N+](=O)[O-])cc2[N+](=O)[O-])cc1`, the activation factor is inactive: 1.03.
Turning to `c1ccc(-c2nn[nH]n2)c(-c2nn[nH]n2)c1`, the activation factor was inactive: 1.09.
As to `Cc1ccc(NP(=O)(Oc2cccc(C)c2)Oc2cccc(C)c2)nc1`, the activation factor was inactive: 1.18.
Turning to `CCOC(=O)NC(Sc1ccccc1)C(Cl)(Cl)Cl` (stereo not drawn), the activation factor was inactive: 0.836.
With `O=C(NC1CCS(=O)(=O)C1)NP(=S)(Oc1ccccc1)Oc1ccccc1` (stereo not drawn) the figure was inactive: 0.969; with `CCNC(=S)/N=C(\N)N[N+](=O)[O-]`, inactive: 0.929.
For `O=C(OC1CN2CCC1CC2)c1ccccc1` (stereo not drawn), the activation factor was inactive: 1.09.
Take `CCC(=O)N1C2C3N(C(=O)CC)C1C1N(C(=O)CC)C(C(N1C(=O)CC)N3C(=O)CC)N2C(=O)CC`: the activation factor is inactive: 1.06.
On to `COC(=O)c1cc2c(s1)N=C(c1ccccc1)N(C)P2(=O)N1CCOCC1` (stereo not drawn), for which the activation factor is inactive: 1.05.
For the molecule `CC(=O)NC(SC(=S)N(CC(C)C)CC(C)C)C(Cl)(Cl)Cl` (stereo not drawn), the activation factor was inactive: 1.29.
With `Cc1ccc(OP(=O)(Nc2ccccn2)Oc2ccc(C)cc2)cc1`, the activation factor was inactive: 1.09.
Turning to `Cc1ccccc1OP(=O)(Nc1ccccn1)Oc1ccccc1C`, the activation factor is inactive: 1.1.
With `CC(NC(=O)COC(=O)C(O)(c1ccccc1)c1ccccc1)c1ccccc1` (stereo not drawn), the activation factor was inactive: 0.973.
The same measure for `CN(C)C(=O)Oc1noc2ccccc12`: inactive: 0.905.
With `CN(C)C1(CNC(=O)c2ccc(Cl)c(S(N)(=O)=O)c2)CCCCC1` the figure was inactive: 0.77.
Regarding `O=P(Nc1ccccn1)(c1ccc(Br)cc1)c1ccc(Br)cc1`, the activation factor was inactive: 1.11.
With `O=P(Nc1nc2ccccc2s1)(c1ccccc1)c1ccccc1` the figure was inactive: 1.01; with `C[C@H]1OP(=O)(Oc2ccccc2)[C@H](O)[C@H](O)[C@H]1N=[N+]=[N-]` (stereo partly drawn), inactive: 1.01; with `O=[As](O)(c1ccccc1)c1ccc(O)cc1`, inactive: 1.07.
With `O=[N+]([O-])c1ncn(CCn2cnc([N+](=O)[O-])n2)n1` the figure was inactive: 1; with `O=C(OC1CN2CCC1CC2)c1cccc(Cl)c1` (stereo not drawn), inactive: 1.05.
On to `Nc1ccc([As](=O)(O)c2ccc([N+](=O)[O-])cc2)cc1`, for which the activation factor was inactive: 0.966.
As for `C(Cc1nn[nH]n1)Cc1nn[nH]n1`, the activation factor was inactive: 0.97.
As to `O=P(Nc1nccs1)(c1ccccc1)c1ccccc1`, the activation factor was inactive: 1.04.
As to `CC(C)C(=O)NC(Sc1ccccc1)C(Cl)(Cl)Cl` (stereo not drawn), the activation factor is inactive: 0.96.
Take `c1nnnn1CCn1cnnn1`: the activation factor was inactive: 1.04.
With `CCC1=CC2Cc3nc4ccc(Cl)cc4c(N)c3C(C1)C2` (stereo not drawn) the figure was inactive: 0.961.
On to `O=P1(Nc2ccccn2)COc2ccccc2OC1`, for which the activation factor is inactive: 1.16.
`CCOP(=O)(NC(=NC(C)c1ccccc1)NC(C)c1ccccc1)OCC` (stereo not drawn): the activation factor was inactive: 1.09.
With `CN(CCCl)Cc1cc(Cl)c(NC2=NCCN2)c(Cl)c1`, the activation factor is inactive: 0.901.
`CCOP(=O)(Nc1ccc(C)cn1)OCC`: the activation factor is inactive: 0.844.
For `Clc1n[nH]nc1-c1nn[nH][15n]1`, the activation factor was inactive: 0.964.
Consider `CC(C)(C)C(=O)NC(Sc1ncccn1)C(Cl)(Cl)Cl` (stereo not drawn), for which the activation factor was inactive: 0.992.
Regarding `COc1ccccc1CNC(=O)COC(=O)C(O)(c1ccccc1)c1ccccc1`, the activation factor was inactive: 0.922.
As to `CN(C(=O)Cc1ccc(Cl)c(Cl)c1)[C@@H]1CCCC[C@H]1N1CCCC1`, the activation factor was inactive: 1.07.
On to `CC(C)/C=N\N=C(\N)N[N+](=O)[O-]`, for which the activation factor was inactive: 0.879.
In the case of `O=[As](O)(c1ccccc1Br)c1ccccc1Br`, the activation factor is inactive: 1.16.
For the molecule `CC1(CBr)Cn2c(nc3ccccc3c2=O)S1` (stereo not drawn), the activation factor is inactive: 0.966.
In the case of `Cc1nn(-c2ccccc2)c2c1P(=O)(N1CCOCC1)N(C)C(c1ccccc1)=N2` (stereo not drawn), the activation factor is inactive: 1.01.
Take `Cc1ccc(C(=O)OC2CN3CCC2CC3)cc1` (stereo not drawn): the activation factor was inactive: 0.917.
The same measure for `CC1CCC(C(C)C)C(OP(=O)(Nc2ccccn2)c2ccccc2)C1` (stereo not drawn): inactive: 0.948; for `CN(C)C1(CNC(=O)c2ccc(S(C)(=O)=O)cc2)CCCCC1`: inactive: 1.08; for `O=C(/C=C/c1ccccc1)OC1CN2CCC1CC2` (stereo not drawn): inactive: 0.96.
As to `O=P1(Nc2ncccn2)COc2ccccc2OC1`, the activation factor was inactive: 0.939.
Turning to `Nc1cccc([As](=O)(O)c2ccccc2)c1`, the activation factor was inactive: 1.12.
`NS(=O)(=O)c1cccc(NC(=O)COC(=O)C(O)(c2ccccc2)c2ccccc2)c1`: the activation factor was inactive: 1.09.
For the molecule `O=P1(Nc2ccc(Br)cn2)COc2ccccc2OC1`, the activation factor is inactive: 1.11.
`Cc1ccc(OCC(=O)OC2CN3CCC2CC3)cc1` (stereo not drawn): the activation factor was inactive: 1.09.
With `O=[As](O)(c1cccs1)c1cccs1`, the activation factor was inactive: 1.04.
With `CCOP1(=S)c2c(C)nn(CCC#N)c2N=C(c2ccccc2F)N1C` (stereo not drawn), the activation factor is inactive: 0.951.
With `O=P(Nc1nccs1)(c1ccccc1)c1nc2ccccc2s1` (stereo not drawn), the activation factor is inactive: 1.05.
The same measure for `O=P(Nc1nccs1)(Oc1ccccc1)Oc1ccccc1`: inactive: 1.11; for `CS(=O)(=O)c1cc([N+](=O)[O-])c2no[n+]([O-])c2c1`: inactive: 1.09.
In the case of `O=C(O)COc1ccc([As](=O)(O)O)cc1[N+](=O)[O-]`, the activation factor was inactive: 0.86.
The same measure for `Nc1ccccc1[As](=O)(O)c1ccccc1`: inactive: 0.992; for `NC(=O)Nc1ccc([As](=O)(O)O)cc1`: inactive: 1.14.
With `N#CCCN(C(=O)COC(=O)C(O)(c1ccccc1)c1ccccc1)c1ccc(F)cc1` the figure was inactive: 1.07; with `CN(C(=O)Cc1ccccc1)[C@@H]1CC[C@]2(CCCO2)C[C@H]1N1CCCC1`, inactive: 0.997.
